AlphaSeq binding of Ab-14 heavy chain variants to a spike HR2 peptide

The target is the same throughout: PDVDLGDISGINAS, from the HR2 region of SARS-CoV-2 spike.

The variants keep the light chain, the linker and the frameworks of Ab-14 (scFv order VH, a 15-residue (Gly4Ser)3 linker, VL).
VH: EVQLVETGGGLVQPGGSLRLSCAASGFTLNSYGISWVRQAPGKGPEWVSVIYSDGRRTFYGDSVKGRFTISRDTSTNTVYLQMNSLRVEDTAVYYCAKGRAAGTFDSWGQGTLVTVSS
VL: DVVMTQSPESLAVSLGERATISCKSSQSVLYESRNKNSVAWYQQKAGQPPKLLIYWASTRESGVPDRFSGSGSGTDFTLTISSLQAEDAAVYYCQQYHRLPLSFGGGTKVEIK

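The starting antibody came from a phage panning campaign against this peptide. Designed CDR sequences, proposed from the first random library and measured here. Several design methods are mixed in this list. In AlphaSeq, yeast of one mating type display the scFv and yeast of the other type display the target. Binding brings cells together so that they mate, and sequencing counts the barcode pairs among the diploids. Each replicate has its own calibration line, from reference interactions of the BCL2 family. Mating was done six times.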

Each variant is given by its three heavy chain CDRs, as the data file delimits them; those of the parent are GFTLNSYGIS, VIYSDGRRTFYGDSVK, GRAAGTFDS. Values are apparent Kd, the geometric mean of the replicates that gave a signal; lower means stronger binding. A pair that was not seen in any replicate is written "not detected"; this usually means weak binding, but a binder can also be missed. The authors' rule: three or more of the six replicates give a measured affinity, fewer mean a poor binder. Three control strains display no target. For all heavy chain designs, 1% of the pairings with them gave a signal, with a median of 120 nM and one signal in twenty below 7.0 nM, so weak values seen in few replicates may be background. For each scFv, signals with the empty controls are counted beside the result. The range of this assay differs from that of the first round, and the authors advise against merging the two.

apparent Kd	replicates with signal	control signals	CDR-H1	CDR-H2	CDR-H3
7.9 nM	5/6	0/18	GFLLDDYGIS	VIYADGLRKAYVDEVK	GYVAGTFDE
3.2 nM	6/6	0/18	GFNLNSYGIS	VIYSDGRRTFYHDSVK	GRTAGTFDS
not detected	0/6	0/18	GFALNEYGIS	VIYADGFRRAYQDKVK	GVNVGEFSV
not detected	0/6	2/18	GDVLDEYGIS	VIYADGRRTAYTQDVK	GKKAGSLSV
not detected	0/6	0/18	GFTLDSYGIS	VIYSDGERTFYIDSVK	GRAVGTFDS
not detected	0/6	0/18	GFTLNSYGIS	VIYSDGRRTFYLDSVK	GQLAGTFDS
8.8 nM	5/6	0/18	HFDLNSYGIS	VIYSDGRRTFYGDSVK	GRTAGTFDD
490 pM	6/6	0/18	GFDLNEYGIS	VIYADGRRTFYIDSVK	GTAAGTFDL
not detected	0/6	0/18	GFTLNSYGIS	VIYSDGRRTFYGDSVK	GTAAGTFDQ
160 nM	6/6	0/18	GFTLNDYGIS	VIYSDGRRTFYGDSVK	GAAAGTFDS
610 nM	4/6	0/18	GKSLNDYGIS	VIYSDGRRTFYGDSVK	GRTAGTFDS
not detected	0/6	0/18	GEDLLEYGIS	VIYADGKRVAYTNQVK	GNEAGFFTL
not detected	0/6	0/18	GFTLNSYGIS	VIYADGRRTFYGDSVK	GRHAGTFKS
690 pM	6/6	0/18	GFDLNSYGIS	VIYSDGRRTFYGDNVK	GQTAGTFDS
39 pM	3/6	0/18	GFSLNSYGIS	VIYSDGRRTFYGDSVK	GKTAGTFDY
71 nM	4/6	0/18	GFTLNSYGIS	VIYSDGRRTFYTDSVR	GRAAGTFDS
470 pM	6/6	1/18	GFDLNEYGIS	VIYADGQRTAYADSVK	GNIAGTFDV
not detected	0/6	0/18	GFTLNSYGIC	VIYSDGRRTFYFDSVK	GRAEGTFDS
430 pM	6/6	0/18	GFDLNEYGIS	VIYADGMRTAYIDSVK	GTNAGTFDI
not detected	0/6	0/18	GNTLNEYGIS	VIYADGIRKAYKDNFK	GMVTGTFDQ
not detected	0/6	0/18	GFDLNEYGVS	VIYADGVRSAYTSSVK	GVGNLDIMI
670 pM	6/6	0/18	GFDLNEYGIS	VIYADGRRTAYAESVK	GNVAGTFDV
not detected	0/6	0/18	GFGLDEYGIS	VIYADGRRTGYQDKFK	GANNFSVLM
4.6 nM	6/6	1/18	GFDLNEYGIS	VIYADGVRTAYADSVK	GTNAGTFDT
160 pM	6/6	0/18	GFDLNEYGIS	VIYADGMRTAYADDVK	GENAGTFDM
7.0 µM	1/6	0/18	GDDLNEVGIS	VIYADGVRNQYIQSVK	GHVAGTFFY
1.9 nM	6/6	1/18	GFDLDEYGIS	VIYADGSRTAYADSVK	GNNAGTFDI
not detected	0/6	0/18	GFQLNSYGIS	VIYSDGRRTFYEDNVK	GDAAGTFDS
5.3 nM	6/6	0/18	GFSLNSYGIS	VIYSDGRRTFYGDNVK	GRMAGTFDS
240 pM	6/6	1/18	GFDLNEYGIS	VIYADGRRTFYADSVK	GKNAGTFDQ
1.0 nM	6/6	0/18	GFELNTYGIS	VIYSDGRRTFYADSVK	GEAAGTFDS
4.9 nM	5/6	0/18	GFDLNSYGIS	VIYSDGRRTFYGDSVK	GRQAGTFDG
39 nM	6/6	0/18	MFTLNSYGIS	VIYSDGRRTFYGDSVK	GQEAGTFDT
630 pM	6/6	0/18	GFELNMYGIS	VIYSDGRRTAYGDSVK	GRQAGTFDS
1.3 µM	1/6	1/18	GFTLNSYGIS	VIYADGRRTFYGDSVK	GRNAGTHKS
not detected	0/6	0/18	GFSLDEYGVS	VIYADGLRTQYVNDVK	GLESFAVKM
350 pM	6/6	0/18	GFDINEYGIS	VIYADGKRTFYADSVK	GNQAGTFDL
1.4 nM	6/6	0/18	GFDINEYGIS	VIYADGRRTAYTDSVK	GGNAGTFDV
2.3 nM	6/6	0/18	GFKLNSYGIS	VIYADGRRTFYGDSVK	GKAAGTFDS
470 pM	6/6	0/18	GFDIDEYGIS	VIYADGRRTFYADSVK	GTNAGTFDT
2.9 nM	6/6	0/18	GFSLNSYGIS	VIYSDGRRTFYGDSVK	GMAAGTFDT
390 pM	6/6	0/18	GFDLDEYGIS	VIYADGRRTFYSDSVK	GSNAGTFDM
170 nM	1/6	0/18	GFDLEEQGVS	VIYADGKRAQYSDNVK	GYQTGFIDV
80 nM	5/6	0/18	GFELNSYGIS	VIYSDGKRTFYGDSVK	GRLAGTFDS
380 pM	6/6	0/18	GFSLNSYGIS	VIYADGRRTFYGDSVK	GDAAGTFDS
3.8 nM	6/6	0/18	GFTLNEYGIS	VIYSDGRRTFVTDSVK	GRFAGTFDS
1.7 nM	6/6	0/18	GFTLNDYGIS	VIYSDGRRTFYGDDVK	GRAAGTFDS
840 pM	6/6	0/18	GFDLNEYGIS	VIYADGVRTAYSDSVK	GDNAGTFDV
3.1 nM	6/6	1/18	GFTLNEYGIS	VIYSDGRRTYYGDSVK	GRAAGTFDS
not detected	0/6	0/18	GFNLDEYGIS	VIYADGVRRAVIDNVK	GLVRVDFDL
58 nM	5/6	0/18	GFTLNSYGIS	VIYSDGRRTFYADSVK	GRTAGTFDT
not detected	0/6	0/18	GFTLNDYGAS	VIYSDGRRTFYGDSVK	GRAALTFIS
not detected	0/6	1/18	GFNLSEYGIS	VIYADGMRSNYADSVK	GHKGNFFID
6.6 nM	6/6	0/18	GFDLNSYGIS	VIYSDGRRTFYGDMVK	GRTAGTFDM
570 pM	6/6	0/18	GFDLDEYGIS	VIYADGRRTFYSDSVK	GENAGTFDV
3.9 nM	6/6	0/18	GFNLNSYGIS	VIYSDGRRTFYKDSVK	GRTAGTFDS
4.7 nM	6/6	0/18	GFDLNEYGIS	VIYADGKRTFYADSVK	GEAAGSFDQ
13 nM	1/6	0/18	KFSLNSYGIS	VIYSDGRRTFYGDSVK	GWTAGTFDS
9.7 nM	6/6	0/18	GFDLNSYGIS	VIYSDGWRTFYGDSVK	GRTAGTFDS
not detected	0/6	1/18	GMSLDEYGIS	VIYADGMRTFYANTVK	GEDGVFYNQ
1.8 nM	6/6	1/18	GFELNEYGIS	VIYSDGRRTFYGDSVK	GRQAGTFDK
790 pM	6/6	0/18	GFDLNEYGIS	VIYADGQRTAYADNVK	GQVAGTFDV
23 nM	4/6	1/18	GFDLEEYGIS	VIYADGQRFAYAQDFK	GEAAGAFDL
800 pM	6/6	0/18	GFDLNEYGIS	VIYADGRRTFYQDSVK	GEIAGTFDI
1.1 nM	6/6	0/18	GFDLNEYGIS	VIYADGRRTAYTDSVK	GDAAGTFDL
230 nM	4/6	0/18	QFTLNSYGIS	VIYSDGRRTFYGDSVK	GQEAGTFDT
5.2 µM	3/6	1/18	GFTLNQYGIS	VIYSDGRRTFYSDSVK	GRAAGFFTS
not detected	0/6	0/18	GFTLNSYGIS	VIYSDGRRTFYAQSVK	GRAAGTFDS
not detected	0/6	0/18	GFDLNEYGIS	VIYADGKRCKYTDNVK	GSLTGTAVT
5.0 nM	5/6	0/18	GFDLNEYGIS	VIYADGMRSVYADSVK	GNNAGTFDV
not detected	0/6	0/18	GINLEEYGIS	VIYADGRRKAYTDKVK	GGNGVMTFV

Values reported by Li et al. 2023, doi:10.1038/s41467-023-39022-2 (FLAb copy).